Test results published in ChEMBL document CHEMBL1145163, “Structure-based design, synthesis, and memapsin 2 (BACE) inhibitory activity of carbocyclic and heterocyclic peptidomimetics” (J Med Chem, 2005).

By UniProt entry, the sequences of proteins in these tests, tags left out. Where a name states a change or a piece, a line headed by the entry shows the natural chain unless it says otherwise.
UniProt P56817: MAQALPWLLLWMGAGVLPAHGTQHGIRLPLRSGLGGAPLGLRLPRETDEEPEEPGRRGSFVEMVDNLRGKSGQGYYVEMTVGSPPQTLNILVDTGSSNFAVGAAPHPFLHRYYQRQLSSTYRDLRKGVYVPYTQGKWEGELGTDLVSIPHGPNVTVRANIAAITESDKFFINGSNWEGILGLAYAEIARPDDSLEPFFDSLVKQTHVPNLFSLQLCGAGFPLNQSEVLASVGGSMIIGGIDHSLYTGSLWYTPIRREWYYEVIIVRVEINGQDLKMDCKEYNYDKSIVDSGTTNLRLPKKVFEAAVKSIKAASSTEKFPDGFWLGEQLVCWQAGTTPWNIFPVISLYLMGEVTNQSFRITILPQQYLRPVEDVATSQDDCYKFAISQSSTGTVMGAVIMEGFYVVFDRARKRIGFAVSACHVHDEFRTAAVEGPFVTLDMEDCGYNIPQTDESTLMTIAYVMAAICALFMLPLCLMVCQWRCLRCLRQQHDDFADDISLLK

Target: Beta-secretase 1 (Homo sapiens, UniProt P56817)
Assay: Inhibitory concentration against human Membrane-associated aspartic protease 2

## CCCCNC(=O)[C@@H](NC(=O)[C@@H]1CC(=O)C[C@H]1[C@H](O)[C@H](CC(C)C)NC(=O)[C@H](CCSC)NC(=O)[C@H](CC(C)C)NC(C)=O)C(C)C
  IC50: 0.01 µM
